Measured values published in PubChem BioAssay AID651780 (The Scripps Research Institute Molecular Screening Center, 2012).
The entries are a selection whose mix differs from that of the whole data set. Activity calls are given as the source filed them. No stated cut-off is given here; in the data, active means inhibition above about 22%; inactive means the rest.

assay: nonselective antagonists in TAAR1 counter-screen cells, counter-screen for hTAAR1 antagonist project, cell-based, fluorescence, calcium (AID 651780); conditions: counterscreen cell line, antagonist mode, at 3 µM, hits give high values;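 further: CHO-Ga16 host cells stimulated with ATP at an EC80 level; 0% = agonist EC80 plus vehicle and 100% = vehicle without agonist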

Compound | inhibition
O=c1[nH]c2ccccc2n1C1CCN(C(c2ccnc3ccccc23)c2nnnn2C2CCCCC2)CC1 (stereo not drawn) | inactive: 17.3%
COc1cccc(C(c2nnnn2C2CCCC2)N2CCC(n3c(=O)[nH]c4ccccc43)CC2)c1OC (stereo not drawn) | inactive: 12.5%
O=c1[nH]c2ccccc2n1C1CCN(C(c2cccs2)c2nnnn2C2CCCCC2)CC1 (stereo not drawn) | inactive: 13%
CCCCn1nnnc1C(c1ccccc1)N1CCC(n2c(=O)[nH]c3ccccc32)CC1 (stereo not drawn) | active: 25.1%
O=c1[nH]c2ccccc2n1C1CCN(C(c2cccs2)c2nnnn2C2CCCC2)CC1 (stereo not drawn) | inactive: 17.5%
O=c1[nH]c2ccccc2n1C1CCN(C(c2ccccc2)c2nnnn2C2CCCC2)CC1 (stereo not drawn) | inactive: 20.6%
CCCCn1nnnc1C(c1cc2ccccc2o1)N1CCC(n2c(=O)[nH]c3ccccc32)CC1 (stereo not drawn) | inactive: 12.6%
O=c1[nH]c2ccccc2n1C1CCN(C(c2ccccc2)c2nnnn2C2CCCCC2)CC1 (stereo not drawn) | inactive: 18.5%
